# Reported water solubility values for industrial, environmental and drug-like chemicals

Solubility in water is on a log10 molar scale (set defined at 25 °C).

compound | log S (log10 mol/L)
COC(=O)c1ccc(C(=O)OC)c(N)c1 | -3.718
Nc1ccc(N=Nc2cccc(N=Nc3ccc(N)cc3N)c2)c(N)c1 | -4.197
Cn1c(=O)[nH]c2[nH]c(=O)n(C)c2c1=O | -2.441
CCC(C(=O)O)C(C)(C)C(=O)O (configuration not stated) | -0.673
CCCCCCCC(C)O (configuration not stated) | -2.74
Clc1ccc(Oc2c(Cl)c(Cl)c(Cl)c(Cl)c2Cl)c(Cl)c1Cl | -10.55
O=S(=O)(O)c1cc(Nc2nc(Nc3ccccc3)nc(N(CCO)CCO)n2)ccc1C=Cc1ccc(Nc2nc(Nc3ccccc3)nc(N(CCO)CCO)n2)cc1S(=O)(=O)O | -1.059
CC1(C)COC(C)(CCCc2ccc(Cl)cc2)N1C(=O)n1ccnc1.CC1(C)COC(C)(CCCc2ccc(Cl)cc2)N1C(=O)n1ccnc1.O=C(O)/C=C/C(=O)O (stereo partly drawn) | -3.73
COc1ccc(-c2ccccc2)cc1 | -3.821
O=C1c2ccccc2C(=O)C1c1nc2ccccc2cc1O | -8
C[C@H](Cc1ccc(O)c(O)c1)[C@@H](C)Cc1ccc(O)c(O)c1 | -4.347
CCCNC(=O)NS(=O)(=O)c1ccc(Cl)cc1 | -3.165
Cc1cc(O)ccc1Br | -2.041
NC(=O)N=C[C@H](O)[C@@H](O)[C@H](O)[C@H](O)CO | 0.197
Nc1ccc(S(=O)(=O)O)c2ccccc12 | -2.857
COC(=O)c1cc(N=NC(C(C)=O)C(=O)Nc2ccc3[nH]c(=O)[nH]c3c2)cc(C(=O)OC)c1 (configuration not stated) | -6.378
NC(=O)NCc1ccccc1 | -0.95
COC(=O)Nc1ncnc2nc[nH]c12 | -2.49
OCc1c2ccccc2cc2ccccc12 | -3.921
O=C(O[C@H]1[C@@H]2C=CO[C@@H](O[C@@H]3O[C@H](CO)[C@@H](O)[C@H](O)[C@H]3O)[C@@H]2[C@@]2(CO)O[C@@H]12)c1ccc(O)cc1 | -1.927
O=C(O)C(F)(F)C(F)(F)C(F)(F)C(F)(F)C(F)(F)C(F)(F)C(F)(F)C(F)(F)C(F)(F)C(F)(F)C(F)(F)C(F)(F)C(F)(F)C(F)(F)C(F)(F)F | -6.726
O=c1[nH]c(=O)c2[nH]cnc2[nH]1 | -3.33
CCC1CCCCN1 (configuration not stated) | -0.345
CC1(C)OC[C@@H]2O[C@@]3(C(=O)O)OC(C)(C)O[C@H]3[C@@H]2O1 | -1.14
O=C(Nc1ccccc1)c1cc(O)c(O)c(O)c1 | -2.089
CC(=O)C(N=Nc1ccc([N+](=O)[O-])cc1)C(=O)Nc1ccc2[nH]c(=O)[nH]c2c1 (configuration not stated) | -7.526
N[C@@H](CSCCCCSC[C@H](N)C(=O)O)C(=O)O | -3.627
CC(C)c1cccc(C(C)C)c1N=C=Nc1c(C(C)C)cccc1C(C)C | -6.86
CC1CCCCC1=O (configuration not stated) | -0.94
Cc1c(I)c(=O)n(-c2ccccc2)n1C | -2.594
O=[N+]([O-])c1ccc(N=Nc2ccc(N(CCO)CCO)cc2)c([N+](=O)[O-])c1 | -5.222
O=C(O)CCCCC(C(=O)O)(c1ccccc1)c1ccccc1 | -3.43

3 of these entries, quoted again:

| compound | log S (log10 mol/L) |
|---|---|
| CC1(C)OC[C@@H]2O[C@@]3(C(=O)O)OC(C)(C)O[C@H]3[C@@H]2O1 | -1.14 |
| COc1ccc(-c2ccccc2)cc1 | -3.821 |
| CC(=O)C(N=Nc1ccc([N+](=O)[O-])cc1)C(=O)Nc1ccc2[nH]c(=O)[nH]c2c1 (configuration not stated) | -7.526 |

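The OPERA project collected these measurements from public sources as training and test data for property models. The files give a single number for a compound and property, which may rest on several reports. Method and conditions are not stated for these values. A value may pool stereoisomers or salt forms, and the file does not say which form was measured. Some entries may be limits or estimates that an upstream database listed as plain numbers.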

Source: data files of OPERA 2.9 (Mansouri et al.), github.com/kmansouri/OPERA.